Reference: PMC7723054
Some of the results follow.

T1: LIN28A (human?, UniProt Q9H9Z2 1-209)
T1 sequence: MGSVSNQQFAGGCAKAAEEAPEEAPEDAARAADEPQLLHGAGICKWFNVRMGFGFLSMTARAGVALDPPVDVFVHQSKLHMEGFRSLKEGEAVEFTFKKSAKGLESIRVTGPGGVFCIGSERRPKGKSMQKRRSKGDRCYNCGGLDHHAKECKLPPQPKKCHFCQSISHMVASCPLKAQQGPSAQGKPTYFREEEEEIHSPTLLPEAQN

T2: CIRBP (Homo sapiens, UniProt Q14011 1-172)
T2 sequence: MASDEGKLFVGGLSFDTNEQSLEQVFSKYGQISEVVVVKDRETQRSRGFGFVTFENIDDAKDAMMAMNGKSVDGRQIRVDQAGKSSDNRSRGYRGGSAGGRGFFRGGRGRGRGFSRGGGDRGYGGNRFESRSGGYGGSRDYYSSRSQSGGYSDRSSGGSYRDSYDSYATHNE

T3: DHX36 (Homo sapiens, UniProt Q9H2U1 1-1008)
T3 sequence: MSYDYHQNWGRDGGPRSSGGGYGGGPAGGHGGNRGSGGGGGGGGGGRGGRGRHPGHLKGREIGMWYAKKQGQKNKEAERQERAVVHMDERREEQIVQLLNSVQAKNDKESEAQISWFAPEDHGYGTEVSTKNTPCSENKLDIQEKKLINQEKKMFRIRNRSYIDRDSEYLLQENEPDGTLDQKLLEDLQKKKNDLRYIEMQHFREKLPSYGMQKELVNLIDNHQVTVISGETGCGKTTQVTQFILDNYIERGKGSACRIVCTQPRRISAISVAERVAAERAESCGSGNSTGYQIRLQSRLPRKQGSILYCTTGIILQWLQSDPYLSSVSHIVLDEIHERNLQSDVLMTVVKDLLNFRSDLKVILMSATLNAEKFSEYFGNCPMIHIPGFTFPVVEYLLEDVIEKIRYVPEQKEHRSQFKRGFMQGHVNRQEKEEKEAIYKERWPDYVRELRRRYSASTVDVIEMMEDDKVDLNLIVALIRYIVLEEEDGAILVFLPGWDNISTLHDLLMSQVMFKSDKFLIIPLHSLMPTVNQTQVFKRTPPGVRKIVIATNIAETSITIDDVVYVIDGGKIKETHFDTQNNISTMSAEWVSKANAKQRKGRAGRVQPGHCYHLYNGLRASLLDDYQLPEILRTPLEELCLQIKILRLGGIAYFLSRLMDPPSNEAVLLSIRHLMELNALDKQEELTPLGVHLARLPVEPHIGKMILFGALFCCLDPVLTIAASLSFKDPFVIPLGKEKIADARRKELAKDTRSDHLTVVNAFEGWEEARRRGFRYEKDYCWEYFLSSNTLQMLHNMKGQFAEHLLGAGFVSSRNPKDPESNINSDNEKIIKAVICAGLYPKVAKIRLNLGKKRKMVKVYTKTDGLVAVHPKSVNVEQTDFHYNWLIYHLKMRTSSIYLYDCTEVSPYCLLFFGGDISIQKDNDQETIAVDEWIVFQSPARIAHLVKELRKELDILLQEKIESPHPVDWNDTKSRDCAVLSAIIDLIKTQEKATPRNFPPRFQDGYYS

B1: hsa-mir-3169 (structured_RNA)
RNA: GGGAAACAUGGGCGGCACUCUUAAAGGUGGUGUACGAAGUUUCAGCAUAGCACAAAGUCUUAUGGUACUGUGCUGAAGCUUCGUGCAC
B2: r(CUG)16:28 (structured_RNA)
RNA: GGGACGCCACGUGCGCUUACAAUAAUAGGGUGUACGAAGUUUCAGCCUGCUGCUGCUGCUGCUGCUGCUGCUGCUGCUGCUGCUGCUGCUGCUGGCUGAAGCUUCGUGCAC
B3: hsa-mir-6851 (structured_RNA)
RNA: GGGAAUCAAUGAGUGGGCCACGGCAACUGGUGUACGAAGUUUCAGCGCCAGCAACCUGAUUACCCCUCUUUGGCGCUGAAGCUUCGUGCAC
B4: hsa-mir-4284 (structured_RNA)
RNA: GGGAUCACAGCCUCGGAAGCUAUACGUAGGUGUACGAAGUUUCAGCAUCAAAGUGGGGACUCAUGGGGAGAGGCUGAAGCUUCGUGCAC
B5: PARIS_ID14 (structured_RNA)
RNA: GGGACCUGUCAACUUGACUACGUAAGGCGGUGUACGAAGUUUCAGCGCUGGUGAUGCCCAACCCAGUGCUCUGCACCCAGGUCACACUGUGGCUUUGUCCUCUGCUUAUGCCUGCAUUGCAGCGCUGAAGCUUCGUGCAC
B6: hsa-mir-3689c (structured_RNA)
RNA: GGGAACGAGGCUGUUAACAUACUGGCUUGGUGUACGAAGUUUCAGCCUGGGAGGUGUGAUAUCGUGGUUCCUGGGCUGAAGCUUCGUGCAC
B7: hsa-mir-4712 (structured_RNA)
RNA: GGGAGAUCAUUUGUUCAUUCGCCGCCCCGGUGUACGAAGUUUCAGCCAUUUCCUUCAUGAUUAGGAAUACUACUUUGAAAUGGCUGAAGCUUCGUGCAC
B8: hsa-mir-3137 (structured_RNA)
RNA: GGGAACAGGGUUGAAACGAACCCGGUUUGGUGUACGAAGUUUCAGCGGGUGUAUGGUAUAGGGGUAGCCUGCUGAAGCUUCGUGCAC
B9: hsa-mir-4737 (structured_RNA)
RNA: GGGACGAGUGGCAUUCUUUACGUCGCCCGGUGUACGAAGUUUCAGCAGUGCCUCACAGCCGCACAGGACCGAGGAUGCUGCUGAAGCUUCGUGCAC
B10: hsa-mir-6794 (structured_RNA)
RNA: GGGCGGUUGAUGGCCUAACGAACAUGCAGGUGUACGAAGUUUCAGCUGAGCAGGCCCAGAACCCAGCUCGUGCUCAGCUGAAGCUUCGUGCAC
B11: NEAT1_ParasoR_ID27 (structured_RNA)
RNA: GGGAGGCUUUACGUAGGGUGGACAGACCGGUGUACGAAGUUUCAGCUCUGAAUCUCCUAUCCAAUACAAAAACUAGGACAAUACAGAGCUGAAGCUUCGUGCAC
B12: hsa-let-7b (structured_RNA)
RNA: GGGAGUUUGAAAUUGAUCGCACCAGGCCGGUGUACGAAGUUUCAGCGUGGUUUCAGGGCAGUGAUGUUGCCCCUCGGAAGAUAACUAUGCUGAAGCUUCGUGCAC
B13: hsa-mir-4803 (structured_RNA)
RNA: GGGACCACAAGGGUAGAGGUGAUCUCAUGGUGUACGAAGUUUCAGCUUGAAUCACACACACAUUUCAAGCUGAAGCUUCGUGCAC
B14: hsa-mir-3193 (structured_RNA)
RNA: GGGCAACGCUCCGACUGAGCAUAGUGUAGGUGUACGAAGUUUCAGCAGUGGACGAGUCUCAUUAGCUGAAGCUUCGUGCAC
B15: hsa-mir-4524b (structured_RNA)
RNA: GGGAGACUAUUAGCUCGGGCAUUUAAGCGGUGUACGAAGUUUCAGCUCUCAAAAUAAUUCUGCAGUGAGAGCUGAAGCUUCGUGCAC
B16: hsa-mir-196a-1 (structured_RNA)
RNA: GGGACCAUUGCGGGAUGUCUGAUGGUCUGGUGUACGAAGUUUCAGCGGGCCUGGGUUUCUGAACACGCUGAAGCUUCGUGCAC
B17: G4_(UGGGGU)8 (structured_RNA)
RNA: GGGAAGUGCGGCUAAAUGUUACCGACACGGUGUACGAAGUUUCAGCUGGGGUUGGGGUUGGGGUUGGGGUUGGGGUUGGGGUUGGGGUUGGGGUGCUGAAGCUUCGUGCAC
B18: hsa-mir-6816 (structured_RNA)
RNA: GGGAGAAAUAGGGGCCACCAGGCUCAAUGGUGUACGAAGUUUCAGCCUGCAGGGACUGUGACACUGAAGCUGAAGCUUCGUGCAC
B19: hsa-mir-637 (structured_RNA)
RNA: GGGAAUAACACUGGCGGAAUCUCCAAGCGGUGUACGAAGUUUCAGCCACUGCAGUUACCCUCCCCUCGGCGUUACUGAGCACUGGCUGAAGCUUCGUGCAC
B20: hsa-mir-5010 (structured_RNA)
RNA: GGGAUGUGAGUUGGACCUACUCUCACCGGGUGUACGAAGUUUCAGCAAAAUUCAUGGCCUACAGCUGCCUCUUGCCAAACUGCACUGGAUUUUGCUGAAGCUUCGUGCAC
B21: hsa-mir-204 (structured_RNA)
RNA: GGGAGCCGCGGGGAUUUAACUUGUCAUCGGUGUACGAAGUUUCAGCAUGCCUGAGAAUAUAUGAAGGAGGCUGCUGAAGCUUCGUGCAC
B22: hsa-mir-4790 (structured_RNA)
RNA: GGGAAGCUGGUACAUCUGACAAUUAGGAGGUGUACGAAGUUUCAGCUUCAUGUUCACUGAAAGGUAGAUUUUAAAAACAUGAAGCUGAAGCUUCGUGCAC
B23: hsa-mir-4492 (structured_RNA)
RNA: GGGAAAUGGGCAUACGCUCACGGUUAUUGGUGUACGAAGUUUCAGCCCCCGCGCGCGGACAGACACACGGACAAGUCCCGCCAGGGGGCUGAAGCUUCGUGCAC

The binders below were run against U1A (Homo sapiens, UniProt P09012) (assay: FOREST: bead pull-down of RNA structure library v1, barcode microarray; U1A/LIN28A: 20 mM HEPES pH 7.5, 80 mM KCl, 20 mM NaCl, 10% glycerol, 2 mM DTT, 0.1 ug/uL BSA, 4 C; BG4/CIRBP/DHX36: 10 mM Tris-HCl pH 7.5, 100 mM KCl (or LiCl),; high values mean tight binding).
In the case of B1, the binding signal is reported as 1.6 z-score.
In the case of B2, the binding signal is reported as 1.57 z-score.
Work on B3 yielded a binding signal of 1.59 z-score.
B4 was tested, and the binding signal was 1.56 z-score.
For B5, the binding signal was 1.63 z-score.
For B7, the binding signal was 1.59 z-score.
Binder B9 has a binding signal of 1.56 z-score.
Binder B10 has a binding signal of 1.62 z-score.
With B11 the binding signal was 1.32 ± 0.383 z-score.
Binder B13 has a binding signal of 1.6 z-score.
In the case of B14, the binding signal is reported as 1.58 z-score.
B16 was tested, and the binding signal was 1.57 z-score.
Binder B17 has a binding signal of 1.59 z-score.
B18 was tested, and the binding signal was 1.57 z-score.
B19 was tested, and the binding signal was 3 z-score.
B20 gave a binding signal of 1.64 z-score.
B22 was tested, and the binding signal was 1.64 z-score.
Binder B23 has a binding signal of 1.58 z-score.

The binders below were run against T1, LIN28A in the same assay as above.
B1 was tested, and the binding signal was -1.03 z-score.
B2 gave a binding signal of 0.144 z-score.
With B3 the binding signal was -0.425 z-score.
In the case of B4, the binding signal is reported as 1.09 z-score.
Binder B5 has a binding signal of -0.532 z-score.
In the case of B6, the binding signal is reported as 2.46 z-score.
Work on B7 yielded a binding signal of 0.292 z-score.
B8 was tested, and the binding signal was 2.4 z-score.
For B9, the binding signal was -0.255 z-score.
B10 showed a binding signal of -0.28 z-score.
Binder B11 has a binding signal of -0.584 ± 0.701 z-score.
B12 showed a binding signal of 2.82 z-score.
With B13 the binding signal was 0.355 z-score.
With B14 the binding signal was 0.464 z-score.
With B15 the binding signal was 2.43 z-score.
B16 gave a binding signal of 0.216 z-score.
B17 was tested, and the binding signal was 1.91 z-score.
For B18, the binding signal was 0.271 z-score.
For B19, the binding signal was 0.254 z-score.
For B20, the binding signal was -0.75 z-score.
For B21, the binding signal was 2.45 z-score.
Work on B22 yielded a binding signal of -0.0826 z-score.
Work on B23 yielded a binding signal of -0.616 z-score.

Each binder was assayed against T2, CIRBP in the same assay as above.
B1 showed a binding signal of -0.326 z-score.
Binder B2 has a binding signal of -1.45 z-score.
With B3 the binding signal was -0.324 z-score.
B4 was tested, and the binding signal was 1.18 z-score.
With B5 the binding signal was -0.459 z-score.
B6 gave a binding signal of -0.227 z-score.
Binder B7 has a binding signal of -0.2 z-score.
B8 showed a binding signal of 0.445 z-score.
B9 showed a binding signal of -0.221 z-score.
Binder B10 has a binding signal of -1.61 z-score.
B11 gave a binding signal of 0.256 ± 0.601 z-score.
In the case of B12, the binding signal is reported as -0.191 z-score.
Binder B13 has a binding signal of 0.207 z-score.
In the case of B14, the binding signal is reported as 0.108 z-score.
Binder B15 has a binding signal of 0.822 z-score.
Work on B16 yielded a binding signal of -0.117 z-score.
B17 was tested, and the binding signal was 5.75 z-score.
Binder B18 has a binding signal of -0.833 z-score.
With B19 the binding signal was 0.201 z-score.
In the case of B20, the binding signal is reported as 0.02 z-score.
Work on B21 yielded a binding signal of 1.02 z-score.
In the case of B22, the binding signal is reported as -0.559 z-score.
Work on B23 yielded a binding signal of -1.16 z-score.

The binders below were run against T3, DHX36 in the same assay as above.
For B1, the binding signal was -0.914 z-score.
B2 gave a binding signal of -0.277 z-score.
In the case of B3, the binding signal is reported as -0.508 z-score.
B4 gave a binding signal of 3.9 z-score.
For B5, the binding signal was -0.225 z-score.
B6 was tested, and the binding signal was 0.532 z-score.
B7 showed a binding signal of -0.165 z-score.
With B8 the binding signal was 2.1 z-score.
For B9, the binding signal was -0.0209 z-score.
For B10, the binding signal was 0.804 z-score.
Work on B11 yielded a binding signal of 0.0826 ± 0.568 z-score.
Binder B12 has a binding signal of 0.583 z-score.
With B13 the binding signal was 0.963 z-score.
Work on B14 yielded a binding signal of 1.26 z-score.
B15 was tested, and the binding signal was 0.255 z-score.
In the case of B16, the binding signal is reported as -0.886 z-score.
B17 was tested, and the binding signal was 7.41 z-score.
B18 showed a binding signal of 0.0208 z-score.
For B19, the binding signal was 0.877 z-score.
With B20 the binding signal was -0.805 z-score.
B21 gave a binding signal of 0.913 z-score.
B22 showed a binding signal of 0.0889 z-score.
In the case of B23, the binding signal is reported as -0.0067 z-score.
